Bioassay records (PubChem)
FGF22 binding – shifts melting point of recombinant human FGF22; Q9HCT0; recombinant FGF22 thermal shift, SYPRO orange fluorescence; percent of sucrose octasulfate shift, DMSO zero; activity (Tm shift, normalised), % at 9.99 µM; hit rate 1.5% among 340,000; AID 651658;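 active = mean Tm shift, scaled 0 neutral to 100 positive control, at about 1.3% or above, every replicate too, limit read from the data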
PDI inh – inhibitors of human protein disulfide isomerase. P07237. hit rate 0.052% among 350,000. inhibition, % at 10 µM. PDI insulin aggregation turbidity, A650, 90 min. AID 588391;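 active = mean inhibition across replicates of 30% or more, whatever share of single replicates reach that level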
Yeast UUG start-1 – modulators of yeast start codon fidelity, primary screen, whole organism, S. cerevisiae, single point, plate reader; S. cerevisiae UUG-firefly luciferase reporter, luminescence/redox ratio; activity score, % at 18.7 µM; actives 0.13% (n = 350,000); AID 602363, 2012;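 active = replicate mean at a twofold rise or more, about +100% in these data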;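 also: firefly luciferase made from a UUG start codon reports start codon fidelity; reporter light over untreated wells divided by growth signal over untreated wells; some hits fall short of that in this replicate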
SIRT5 inh – blocks human SIRT5 desuccinylation of peptide; Purified SirT5, succinyl-peptide AMC, trypsin-coupled fluorescence; inhibition, % at 15 µM; hit rate 1.1% among 330,000; AID 652115; in the data active = inhibition above about 15%
S100A4 inh HTS – inhibitors of human S100A4 binding to myosin IIA peptide. P26447. S100A4/TAMRA-MyoIIA peptide fluorescence polarization. inhibition, % at 10.7 µM. hit rate 0.14% among 360,000. AID 652163;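 active = mean inhibition of at least 70% across replicates, with every replicate also reaching that level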
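Material: S100A4 monomer protein / Buffer or medium: 50 mM HEPES pH 7.2, 10 mM CaCl2, 100 mM KCl / Times: 5 min incubation before reading / Benchmarks: neutral control DMSO, positive control TFP / Reagent: labelled myosin peptide probe, 5 nM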
ERp5 block – blocks human ERp5 reductase activity on insulin. AID 651711. ERp5 insulin aggregation, absorbance 650 nm, 90 min. hit rate 0.05% among 350,000. inhibition, % at 9.99 µM;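 active = mean replicate inhibition above about 25%, with every replicate also reaching it, limit read from the data, passing the limit was not always enough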
Yeast UUG start-2 – yeast start codon fidelity modulation; 540 tested, under 10 active; activation, % at 38 µM; shares compounds with Yeast UUG start-1; AID 652061; S. cerevisiae UUG-start firefly luciferase, luminescence, 4 h; 100% means double the DMSO signal;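 active = signal increase whose fitted curve reaches an absolute level of 40 at a concentration under 10 µM; inactive = activity opposite to the expected increase, or the rest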
* marks the source's active call; other numbers are inactive results; i = inactive; . = no result. The list is not random: actives were taken first. Their share in the collection is about 2.2%.

Letters: A = FGF22 binding; B = PDI inh; C = Yeast UUG start-1; D = SIRT5 inh; E = S100A4 inh HTS; F = ERp5 block; G = Yeast UUG start-2
smiles: COc1ccc(S(=O)(=O)N(C)C[C@H]2OCCCC[C@H](C)Oc3ccc(NS(C)(=O)=O)cc3C(=O)N([C@@H](C)CO)C[C@@H]2C)cc1
  A: 0; B: .; C: 12; D: -7; E: -4; F: 1; G: .
smiles: O=C(COC(=O)c1cc2ccccc2o1)c1ccccc1
  A: .; B: -1; C: -4; D: .; E: .; F: .; G: 10
smiles: O=C(Oc1ccccc1)c1cc2ccccc2o1
  A: .; B: 0; C: -17; D: .; E: .; F: .; G: .
smiles: CCC(=O)Nc1ccc2c(c1)OC[C@H](C)N(C(=O)C1CC1)C[C@H](C)[C@@H](OC)CN(C)C2=O
  A: 0; B: .; C: -2; D: -4; E: .; F: 3; G: .
smiles: CCCN1C[C@H](C)[C@H](OC)CN(C)C(=O)c2ccc(NS(=O)(=O)c3ccccc3)cc2OC[C@@H]1C
  A: 0; B: .; C: 38; D: -2; E: 44; F: -23; G: .
smiles: O=C(O)c1cc(NC(=O)c2ccc([N+](=O)[O-])cc2)cc(NC(=O)c2ccc([N+](=O)[O-])cc2)c1
  A: 0; B: 6; C: 3; D: 1; E: -1; F: 4; G: .
smiles: O=C(Nc1ccc([N+](=O)[O-])cc1)C(=O)Nc1cccc(C(=O)O)c1
  A: 0; B: 0; C: 171*; D: -4; E: -2; F: -3; G: -56
smiles: Cc1cc(C(=O)OCC(=O)c2ccc3c(c2)OCCO3)c(C)o1
  A: .; B: -3; C: -22; D: .; E: .; F: .; G: .
smiles: Cc1c(C(=O)OCC(=O)c2ccc3c(c2)OCCO3)oc2ccccc12
  A: .; B: 0; C: -5; D: .; E: .; F: .; G: 3
smiles: O=C(NCC[C@@H]1CC[C@H](NS(=O)(=O)c2cccc(F)c2)[C@H](CO)O1)C1CCCC1
  A: 0; B: .; C: 145*; D: -2; E: -1; F: -3; G: i
smiles: Cc1ccc(S(=O)(=O)N[C@H]2CC[C@H](CCNS(=O)(=O)Cc3ccccc3)O[C@@H]2CO)cc1
  A: -1; B: .; C: 148*; D: 3; E: 16; F: -2; G: i
smiles: O=C(Nc1ccccc1F)N[C@H]1CC[C@H](CCNS(=O)(=O)c2ccc(F)cc2)O[C@H]1CO
  A: 0; B: .; C: 154*; D: 4; E: 3; F: 3; G: i
smiles: C[C@@H]1CN([C@H](C)CO)C(=O)c2cccc(NC(=O)Nc3ccc(F)cc3)c2O[C@@H]1CN(C)Cc1ccc(Oc2ccccc2)cc1
  A: 0; B: .; C: -10; D: -4; E: 16; F: 0; G: .
smiles: C[C@H]1CN([C@@H](C)CO)C(=O)c2cc(NC(=O)CCCCCC(=O)Nc3ccccc3N)ccc2O[C@@H]1CN(C)S(=O)(=O)c1ccccc1
  A: 0; B: .; C: .; D: .; E: 11; F: 8; G: .
smiles: CC1(C#CC[N+]2(C)CCCCC2)CCC2C(O1)c1ccccc1OC2(C)C (stereo not drawn)
  A: 44*; B: -1; C: active; D: 0; E: -8; F: 5; G: -4
smiles: CN(C[C@@H]1[C@H](c2ccccc2)[C@H](CO)N1C(=O)c1ccccc1)C(=O)C1CC1
  A: 0; B: .; C: 26; D: 1; E: -2; F: 7; G: .
smiles: CN(C[C@H]1[C@H](c2ccccc2)[C@@H](CO)N1C(=O)c1ccccc1)C(=O)C1CC1
  A: 0; B: .; C: 156*; D: 0; E: -7; F: 12; G: i
smiles: C[C@H]1CN([C@@H](C)CO)S(=O)(=O)c2ccc(-c3cccnc3)cc2O[C@H]1CN(C)CC1CCOCC1
  A: 0; B: .; C: .; D: 1; E: 1; F: 1; G: .
smiles: COc1ccc(-c2cn(CC(=O)N3CCN(C)CC3)nn2)cc1OC
  A: 0; B: .; C: 148*; D: -1; E: 3; F: 1; G: i
smiles: O=C(Cc1cccc2ccccc12)NCC(=O)N1CCN(Cc2cccc(C(F)(F)F)c2)CC1
  A: 0; B: -2; C: 116*; D: 7; E: -5; F: 0; G: 12
smiles: O=C(Cc1cccc2ccccc12)NCC(=O)N1CCN(CC(=O)Nc2ccc(F)cc2)CC1
  A: 0; B: 0; C: -15; D: .; E: -3; F: -10; G: .
smiles: CCC(=O)Nc1ccc2c(c1)OC[C@H](C)N(CCC(F)(F)F)C[C@H](C)[C@@H](OC)CN(C)C2=O
  A: 0; B: .; C: .; D: 1; E: 8; F: 4; G: .
smiles: N/C(=N\S(=O)(=O)c1ccc(Cl)s1)c1ccccc1
  A: .; B: 3; C: 117*; D: .; E: .; F: .; G: -2
smiles: Cc1ccc(S(=O)(=O)N(C)C[C@H]2Oc3cc(C#Cc4ccccc4)ccc3S(=O)(=O)N([C@@H](C)CO)C[C@H]2C)cc1
  A: 0; B: .; C: -12; D: 12; E: -2; F: 1; G: .
smiles: Cc1cccc(/C=N/NC(=O)c2cc(C3CC3)nc3ccccc23)n1
  A: 0; B: 8; C: -11; D: 2; E: 0; F: -2; G: .
smiles: CCc1ccc(/C=N/NC(=O)c2cc(C3CC3)nc3ccccc23)s1
  A: .; B: -5; C: 307*; D: .; E: .; F: .; G: -4

Random excerpt: 2 records from the list
Letters: A = FGF22 binding; B = PDI inh; C = Yeast UUG start-1; D = SIRT5 inh; E = S100A4 inh HTS; F = ERp5 block; G = Yeast UUG start-2
smiles: Cc1c(C(=O)OCC(=O)c2ccc3c(c2)OCCO3)oc2ccccc12
  A: .; B: 0; C: -5; D: .; E: .; F: .; G: 3
smiles: CCC(=O)Nc1ccc2c(c1)OC[C@H](C)N(CCC(F)(F)F)C[C@H](C)[C@@H](OC)CN(C)C2=O
  A: 0; B: .; C: .; D: 1; E: 8; F: 4; G: .
